The target of assay [1] is T1, Phosphatidylinositol 4,5-bisphosphate 3-kinase catalytic subunit delta isoform (Homo sapiens, UniProt O00329).
T1 sequence (O00329 whole entry): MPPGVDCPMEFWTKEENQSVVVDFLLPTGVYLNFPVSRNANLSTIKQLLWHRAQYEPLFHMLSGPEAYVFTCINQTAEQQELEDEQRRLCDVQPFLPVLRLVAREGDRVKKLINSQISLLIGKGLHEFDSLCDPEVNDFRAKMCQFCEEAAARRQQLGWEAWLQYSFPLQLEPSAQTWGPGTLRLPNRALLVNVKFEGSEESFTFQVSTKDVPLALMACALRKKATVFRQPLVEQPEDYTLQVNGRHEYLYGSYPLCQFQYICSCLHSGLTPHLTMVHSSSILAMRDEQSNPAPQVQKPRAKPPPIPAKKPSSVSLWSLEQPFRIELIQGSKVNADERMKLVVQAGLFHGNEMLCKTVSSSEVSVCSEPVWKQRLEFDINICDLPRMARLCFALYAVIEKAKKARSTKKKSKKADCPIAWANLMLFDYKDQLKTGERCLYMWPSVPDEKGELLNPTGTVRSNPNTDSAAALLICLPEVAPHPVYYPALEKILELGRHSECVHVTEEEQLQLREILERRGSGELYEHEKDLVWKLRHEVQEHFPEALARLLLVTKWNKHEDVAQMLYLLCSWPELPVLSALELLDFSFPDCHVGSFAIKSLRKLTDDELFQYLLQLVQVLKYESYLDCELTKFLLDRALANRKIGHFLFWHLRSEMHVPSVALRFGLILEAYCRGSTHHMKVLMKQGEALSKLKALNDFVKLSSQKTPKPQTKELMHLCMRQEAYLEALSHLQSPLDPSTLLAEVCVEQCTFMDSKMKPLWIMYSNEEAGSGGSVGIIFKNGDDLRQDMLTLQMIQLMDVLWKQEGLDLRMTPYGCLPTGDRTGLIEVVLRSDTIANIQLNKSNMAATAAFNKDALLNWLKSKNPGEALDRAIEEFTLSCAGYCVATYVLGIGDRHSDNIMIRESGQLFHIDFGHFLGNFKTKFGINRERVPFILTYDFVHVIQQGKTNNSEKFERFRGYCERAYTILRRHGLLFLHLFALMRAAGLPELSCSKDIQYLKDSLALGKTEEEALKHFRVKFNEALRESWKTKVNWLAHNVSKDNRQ

By UniProt entry, the sequences of proteins in these tests, tags left out. Where a name states a change or a piece, a line headed by the entry shows the natural chain unless it says otherwise.
UniProt P48736: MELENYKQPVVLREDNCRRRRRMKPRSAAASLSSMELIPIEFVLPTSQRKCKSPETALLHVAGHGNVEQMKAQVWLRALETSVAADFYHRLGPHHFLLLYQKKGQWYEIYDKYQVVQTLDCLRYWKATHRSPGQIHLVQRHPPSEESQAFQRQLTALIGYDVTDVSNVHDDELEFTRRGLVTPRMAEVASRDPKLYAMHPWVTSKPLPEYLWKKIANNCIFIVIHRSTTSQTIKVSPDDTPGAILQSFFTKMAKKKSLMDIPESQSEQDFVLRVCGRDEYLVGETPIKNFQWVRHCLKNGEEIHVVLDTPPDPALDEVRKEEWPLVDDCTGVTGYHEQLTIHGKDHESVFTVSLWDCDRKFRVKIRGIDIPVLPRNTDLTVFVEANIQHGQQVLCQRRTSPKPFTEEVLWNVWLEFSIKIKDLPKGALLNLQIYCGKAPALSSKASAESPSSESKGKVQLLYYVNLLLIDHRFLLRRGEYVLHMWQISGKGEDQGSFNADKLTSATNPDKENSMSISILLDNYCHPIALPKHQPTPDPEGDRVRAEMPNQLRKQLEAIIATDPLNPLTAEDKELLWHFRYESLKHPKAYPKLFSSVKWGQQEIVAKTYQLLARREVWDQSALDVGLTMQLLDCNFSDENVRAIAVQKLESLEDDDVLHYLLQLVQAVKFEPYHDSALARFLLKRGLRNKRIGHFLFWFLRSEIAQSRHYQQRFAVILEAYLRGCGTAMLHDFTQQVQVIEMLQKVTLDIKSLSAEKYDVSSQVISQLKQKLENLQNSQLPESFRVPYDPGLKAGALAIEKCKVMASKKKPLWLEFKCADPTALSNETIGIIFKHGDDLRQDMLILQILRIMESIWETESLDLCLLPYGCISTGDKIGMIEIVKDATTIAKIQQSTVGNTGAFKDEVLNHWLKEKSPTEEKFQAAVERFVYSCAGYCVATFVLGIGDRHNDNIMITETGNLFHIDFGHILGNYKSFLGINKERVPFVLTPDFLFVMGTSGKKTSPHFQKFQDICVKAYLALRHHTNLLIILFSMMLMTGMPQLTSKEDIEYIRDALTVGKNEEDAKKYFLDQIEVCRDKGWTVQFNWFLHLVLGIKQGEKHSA

The target in assay [2] is T1, Phosphatidylinositol 4,5-bisphosphate 3-kinase catalytic subunit delta isoform. Put plainly: Inhibition of PI3Kdelta in human whole blood assessed as inhibition of CD69 production in B lymphocyte by immunoassay.
The target in assay [3] is Phosphatidylinositol 4,5-bisphosphate 3-kinase catalytic subunit gamma isoform (Homo sapiens, UniProt P48736). Put plainly: Inhibition of PI3Kgamma using phosphatidylinositol as substrate by gamma33P[ATP] incorporation assay.

SMILES strings stand for the structures. A value given as a limit tells only on which side of the number the result lay.

Broadly, the IC50 is the concentration at which inhibition is half-maximal.

Take `CC(Nc1ncnc2[nH]cnc12)c1cc(Cl)c2ccnnc2c1-c1cccc(F)c1` (centres undefined): the IC50 in assay [1] is less than 50 nM. As to `CCc1nc2ccccc2n1-c1nc(N2CCOCC2)c2nc(OC3CN(C(=O)C(C)C)C3)n(C)c2n1`, the IC50 in assay [2] is 5.2 nM. In turn, `Cc1csc2nc([C@H](C)Nc3ncnc4[nH]cnc34)c(-c3cccc(F)c3)c(=O)n12` [DEZAPELISIB] returned an IC50 in assay [1] of less than 50 nM. In assay [3], `O=c1cc(N2CCOCC2)oc2c(-c3ccccc3)cccc12` [LY-294002] registered an IC50 of 6600 nM.

(Values after ChEMBL document CHEMBL2216751, “PI3Kδ and PI3Kγ as targets for autoimmune and inflammatory diseases” (J Med Chem, 2012).)
